# Ab-95 light chain CDR variants: yeast mating affinities

Values reported by Engelhart et al. 2022, doi:10.1038/s41597-022-01779-4 (FLAb copy).

All variants were tested on one target, the spike HR2 peptide PDVDLGDISGINAS (SARS-CoV-2).

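Variants in AAYL52 differ from the parent at up to three CDR positions; double and triple changes were sampled at random. In AlphaSeq, yeast of one mating type display the scFv and yeast of the other type display the target. Pairs that bind mate more often; barcode pairs of the diploids are counted by sequencing. Scores were corrected for input abundance and mapped to Kd with protein pairs of known affinity run in the same pool. There are three technical replicates.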

Each scFv is VH, a (GGGGS)3 linker, VL, as in the parent Ab-95, and differs from it in the CDRs of the light chain only.
VH: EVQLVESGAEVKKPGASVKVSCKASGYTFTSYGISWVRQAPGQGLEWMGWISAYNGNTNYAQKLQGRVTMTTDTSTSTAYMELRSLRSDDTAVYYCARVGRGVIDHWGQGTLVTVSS
VL: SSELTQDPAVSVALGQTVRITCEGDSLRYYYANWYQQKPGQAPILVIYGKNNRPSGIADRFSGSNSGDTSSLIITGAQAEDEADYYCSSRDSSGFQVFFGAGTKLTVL

Each variant is given by its three light chain CDRs, as the data file delimits them; those of the parent are EGDSLRYYYAN, GKNNRPS, SSRDSSGFQVF. This list gathers variants with a substitution at K50 (VL, numbered from residue 1). Kd is apparent (estimated from mating counts) and averaged on the log scale over replicates with a signal. Smaller is tighter. An entry "nd" has no value in the source: the pair was not observed among the diploids in any replicate. This suggests poor binding but is not conclusive. For reference, the parent read 200 nM as the reference entry and 180 nM as a member of this library. As a blank, each scFv also met three strains without target: over library AAYL52, 28% of these pairings were detected, typically at 8.2 µM and seldom below 800 nM.

- EGDSLRYYYAN, GCGNRPS, SSRDSSGFQSF: 2.6 µM (1 of 3 replicates)
- EGDSLRYYYAN, GCNNRPS, SSRDSSGFQDF: 4.9 µM (3 of 3 replicates)
- EGDSLRYYYAN, GINNRPS, SSGNSSGFQVF: 2.3 µM (3 of 3 replicates)
- EGDDLRYYYAN, GINNRPS, SSRDSSFFQVF: 4.8 µM (3 of 3 replicates)
- EGDSLRYYYAN, GDNNEPS, SSRDSSGFQVM: 4.4 µM (1 of 3 replicates)
- EGDSLRDYYAN, GWNQRPS, SSRDSSGFQVF: 110 nM (3 of 3 replicates)
- EGDSLRYYYAN, GQNNRPS, VSRDSSGFQYF: 830 nM (3 of 3 replicates)
- LGDSLRYYSAN, GINNRPS, SSRDSSGFQVF: 88 nM (3 of 3 replicates)
- EGDSLRYYYNA, GYNNRPS, SSRDSSGFQVF: 160 µM (2 of 3 replicates)
- EGDSLRYYYAN, GGNNRPS, CSHDSSGFQVF: 1.8 µM (3 of 3 replicates)
- EGDSLRYYYQN, GGNNRPS, SSRDSSGFQVF: 280 nM (3 of 3 replicates)
- EGDSLRWYYAN, GQNNRPS, SSMDSSGFQVF: 7.2 µM (2 of 3 replicates)
- EGDSLRYYYAN, GSNNRPS, CSRTSSGFQVF: 500 nM (3 of 3 replicates)
- NGDSLLYYYAN, GYNNRPS, SSRDSSGFQVF: 120 nM (3 of 3 replicates)
- EGDSLRYYYAN, QCQNRPS, SSRDSSGFQVF: nd (0 of 3 replicates)
- EGDSLRYYYAN, GLNNRPS, QSRDSSGVQVF: 2.1 µM (2 of 3 replicates)
- EGDSLRYYYAN, GANNRPS, SSRDSSGYQVF: 35 nM (3 of 3 replicates)
- EGDSLRYYYAF, GQNNRPS, RSRDSSGFQVF: nd (0 of 3 replicates)
- EGDSLRYYYAT, GQNNRPS, SSRDWSGFQVF: 7.3 µM (1 of 3 replicates)
- EGDSLRYYYAN, GQNNSPS, SSRDSSGFQWF: 6.7 µM (1 of 3 replicates)
- EGDSLRYYYAN, GHNNRPS, SSWDSSGFQVF: 10 µM (3 of 3 replicates)
- EGDSLRYYYAN, GLNNRPS, ISRDSSGFQVR: 37 µM (2 of 3 replicates)
- EGDSLRYYYAN, GGNNRPS, SSRGSSGFNVF: 200 nM (3 of 3 replicates)
- EGWSLRYYYAN, GVNWRPS, SSRDSSGFQVF: 11 µM (1 of 3 replicates)
- EGDSLRYGCAN, GHNNRPS, SSRDSSGFQVF: 8.5 nM (3 of 3 replicates)
- EGDSLRYYYAN, GCWNRPS, SSRDSSGRQVF: 8.0 µM (2 of 3 replicates)
- EGDSLRYYYAN, GRNNRYS, STRDSSGFQVF: 520 nM (2 of 3 replicates)
- VGDQLRYYYAN, GRNNRPS, SSRDSSGFQVF: 1.5 µM (2 of 3 replicates)
- EGDSLRYYYAN, IRNNRHS, SSRDSSGFQVF: nd (0 of 3 replicates)
- AGDSLWYYYAN, GCNNRPS, SSRDSSGFQVF: 13 µM (2 of 3 replicates)
- EGDSLRYYYAN, GSNNRPS, STRDSSGFQKF: 1.6 µM (3 of 3 replicates)
- ELDSLRYYYAN, GRNNRPS, SSRDSSGFQAF: 17 µM (1 of 3 replicates)
- EGDSLRYYYKN, GFNRRPS, SSRDSSGFQVF: 1.5 µM (3 of 3 replicates)
- EGDSLRYYYAN, GTNNRPS, SSYDSSGFQIF: nd (0 of 3 replicates)
- EGDSLRFYYAN, GANNRPS, SSRDSSGQQVF: 3.8 µM (3 of 3 replicates)
- EGDSLRYYYAN, GSNNRRV, SSRDSSGFQVF: 560 nM (1 of 3 replicates)
- DGDSLRYYYAN, GVNNRPS, SSRDSSGRQVF: 150 nM (3 of 3 replicates)
- EGDSLRYYNAN, GCNNRPS, SSRGSSGFQVF: 110 nM (3 of 3 replicates)
- EGDSLQYYYAN, GFNNRPS, SSRMSSGFQVF: 14 µM (3 of 3 replicates)
- EGDSLRYYYAN, GENNRPS, SSRDSSDFQVF: nd (0 of 3 replicates)
- EGDNLRYYYAN, GHNNRPS, SSRDSSGFQVR: 600 nM (2 of 3 replicates)
- EGTSLRYYYAN, PWNNRPS, SSRDSSGFQVF: 12 µM (2 of 3 replicates)
- EEDSLRYYYAN, GWNNRPK, SSRDSSGFQVF: 770 nM (3 of 3 replicates)
- EGDSLRYYYAN, GSNNRPS, SSRDPSGFQSF: 5.0 µM (3 of 3 replicates)
- EGDSLRYYYAN, GLRNRPS, SSRDSSGCQVF: 4.8 µM (1 of 3 replicates)
- EGDSLRYYYAN, GINNRPS, SSPDGSGFQVF: 22 µM (1 of 3 replicates)
- EGDRLRYRYAN, GYNNRPS, SSRDSSGFQVF: 5.5 µM (2 of 3 replicates)
- EGDSLRYYYAN, GSNNRPS, SSRDSSTTQVF: 2.0 µM (3 of 3 replicates)
- EGDSLRGYYAN, GLNNRSS, SSRDSSGFQVF: 200 nM (3 of 3 replicates)
- EGDSLRYYYAN, GLNHRPS, SSRMSSGFQVF: nd (0 of 3 replicates)
- EGDSLRYYYAN, GFNNRPS, SSRDSSGFQEF: 17 µM (2 of 3 replicates)

Repeated from above, the 6 best binders with a signal in all replicates:

CDR-L1	CDR-L2	CDR-L3	apparent Kd	seen in
EGDSLRYGCAN	GHNNRPS	SSRDSSGFQVF	8.5 nM	3 of 3
EGDSLRYYYAN	GANNRPS	SSRDSSGYQVF	35 nM	3 of 3
LGDSLRYYSAN	GINNRPS	SSRDSSGFQVF	88 nM	3 of 3
EGDSLRYYNAN	GCNNRPS	SSRGSSGFQVF	110 nM	3 of 3
EGDSLRDYYAN	GWNQRPS	SSRDSSGFQVF	110 nM	3 of 3
NGDSLLYYYAN	GYNNRPS	SSRDSSGFQVF	120 nM	3 of 3